# Data reported in patent US20260384438A1, “PYRROLOPYRIMIDINE CARBOXAMIDES” (published 2026).
# Sequences of proteins named here, by UniProt entry; tags and fusion partners are left off.
# UniProt Q13177, whole entry: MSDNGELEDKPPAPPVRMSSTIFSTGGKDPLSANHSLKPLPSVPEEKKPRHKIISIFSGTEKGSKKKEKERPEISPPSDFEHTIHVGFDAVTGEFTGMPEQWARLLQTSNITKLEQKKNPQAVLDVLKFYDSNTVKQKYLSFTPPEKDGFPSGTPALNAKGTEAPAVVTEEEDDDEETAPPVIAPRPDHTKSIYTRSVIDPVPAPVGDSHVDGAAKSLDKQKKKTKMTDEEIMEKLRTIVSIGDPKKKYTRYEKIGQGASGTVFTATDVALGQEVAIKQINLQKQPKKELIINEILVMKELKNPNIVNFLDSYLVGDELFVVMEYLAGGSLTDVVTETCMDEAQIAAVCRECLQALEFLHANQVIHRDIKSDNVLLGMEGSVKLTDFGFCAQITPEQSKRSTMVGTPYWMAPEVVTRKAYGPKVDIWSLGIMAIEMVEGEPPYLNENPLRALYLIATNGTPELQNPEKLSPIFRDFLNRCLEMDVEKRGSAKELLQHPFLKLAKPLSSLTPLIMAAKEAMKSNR
# UniProt Q13557, whole entry: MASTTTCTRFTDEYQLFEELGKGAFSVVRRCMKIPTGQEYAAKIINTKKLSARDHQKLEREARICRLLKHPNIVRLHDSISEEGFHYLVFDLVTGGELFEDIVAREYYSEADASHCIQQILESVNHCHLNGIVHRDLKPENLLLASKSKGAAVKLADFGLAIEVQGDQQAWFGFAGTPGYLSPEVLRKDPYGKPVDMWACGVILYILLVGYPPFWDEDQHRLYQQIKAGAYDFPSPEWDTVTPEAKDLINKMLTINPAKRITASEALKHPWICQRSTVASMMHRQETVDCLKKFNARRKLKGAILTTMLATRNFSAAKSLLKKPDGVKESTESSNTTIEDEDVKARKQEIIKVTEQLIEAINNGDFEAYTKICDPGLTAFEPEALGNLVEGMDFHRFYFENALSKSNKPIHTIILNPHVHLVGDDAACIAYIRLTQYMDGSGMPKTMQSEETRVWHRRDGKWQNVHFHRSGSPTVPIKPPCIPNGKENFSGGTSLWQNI
# UniProt Q00535, whole entry: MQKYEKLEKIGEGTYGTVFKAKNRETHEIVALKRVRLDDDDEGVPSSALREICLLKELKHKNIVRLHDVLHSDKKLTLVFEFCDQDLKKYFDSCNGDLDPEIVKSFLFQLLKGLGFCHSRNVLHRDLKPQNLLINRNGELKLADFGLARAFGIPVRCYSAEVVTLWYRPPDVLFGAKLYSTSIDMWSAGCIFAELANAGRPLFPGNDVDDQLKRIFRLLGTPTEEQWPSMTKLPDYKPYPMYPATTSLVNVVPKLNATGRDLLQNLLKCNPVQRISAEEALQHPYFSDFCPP
# UniProt Q13188, whole entry: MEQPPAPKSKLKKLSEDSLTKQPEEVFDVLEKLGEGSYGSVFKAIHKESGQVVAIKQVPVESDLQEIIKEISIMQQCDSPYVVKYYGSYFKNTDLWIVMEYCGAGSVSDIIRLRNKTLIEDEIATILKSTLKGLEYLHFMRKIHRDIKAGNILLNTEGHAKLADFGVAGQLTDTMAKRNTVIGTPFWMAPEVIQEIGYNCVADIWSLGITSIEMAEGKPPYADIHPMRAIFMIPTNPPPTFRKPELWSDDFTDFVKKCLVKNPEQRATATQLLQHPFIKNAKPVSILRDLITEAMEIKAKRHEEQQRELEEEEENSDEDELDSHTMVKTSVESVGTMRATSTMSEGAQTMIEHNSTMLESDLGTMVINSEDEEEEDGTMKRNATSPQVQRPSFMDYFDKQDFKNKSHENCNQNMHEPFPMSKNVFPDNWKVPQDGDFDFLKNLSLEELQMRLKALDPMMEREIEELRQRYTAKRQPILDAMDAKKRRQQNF
# UniProt P52333, whole entry: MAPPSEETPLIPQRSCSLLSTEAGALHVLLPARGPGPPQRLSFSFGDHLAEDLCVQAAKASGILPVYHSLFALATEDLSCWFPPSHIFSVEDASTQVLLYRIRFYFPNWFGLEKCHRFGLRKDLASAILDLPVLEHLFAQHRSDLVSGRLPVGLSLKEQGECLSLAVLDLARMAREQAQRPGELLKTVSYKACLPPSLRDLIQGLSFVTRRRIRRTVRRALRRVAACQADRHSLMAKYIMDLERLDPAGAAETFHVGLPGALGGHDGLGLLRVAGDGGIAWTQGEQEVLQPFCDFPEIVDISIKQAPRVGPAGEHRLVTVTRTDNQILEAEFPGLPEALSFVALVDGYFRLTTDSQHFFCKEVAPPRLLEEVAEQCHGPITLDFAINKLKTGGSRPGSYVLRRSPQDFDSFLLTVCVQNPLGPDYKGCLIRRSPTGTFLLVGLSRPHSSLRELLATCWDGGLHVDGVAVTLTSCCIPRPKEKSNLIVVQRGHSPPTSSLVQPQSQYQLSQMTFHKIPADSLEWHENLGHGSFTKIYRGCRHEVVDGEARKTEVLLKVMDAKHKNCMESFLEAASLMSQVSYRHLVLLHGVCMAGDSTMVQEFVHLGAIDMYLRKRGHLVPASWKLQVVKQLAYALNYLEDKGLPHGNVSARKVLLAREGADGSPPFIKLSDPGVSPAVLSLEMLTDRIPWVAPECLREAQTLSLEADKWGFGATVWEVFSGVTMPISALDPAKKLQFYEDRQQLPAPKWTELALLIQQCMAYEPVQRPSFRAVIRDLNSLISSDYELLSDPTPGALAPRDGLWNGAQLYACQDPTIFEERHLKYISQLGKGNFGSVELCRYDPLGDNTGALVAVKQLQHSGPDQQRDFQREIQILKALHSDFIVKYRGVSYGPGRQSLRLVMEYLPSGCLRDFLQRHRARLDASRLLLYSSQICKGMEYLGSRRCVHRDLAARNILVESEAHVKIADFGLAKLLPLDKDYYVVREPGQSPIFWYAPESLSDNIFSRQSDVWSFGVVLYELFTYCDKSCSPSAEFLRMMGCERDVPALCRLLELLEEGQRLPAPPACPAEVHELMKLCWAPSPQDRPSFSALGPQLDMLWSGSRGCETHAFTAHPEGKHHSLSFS
# UniProt O43293, whole entry: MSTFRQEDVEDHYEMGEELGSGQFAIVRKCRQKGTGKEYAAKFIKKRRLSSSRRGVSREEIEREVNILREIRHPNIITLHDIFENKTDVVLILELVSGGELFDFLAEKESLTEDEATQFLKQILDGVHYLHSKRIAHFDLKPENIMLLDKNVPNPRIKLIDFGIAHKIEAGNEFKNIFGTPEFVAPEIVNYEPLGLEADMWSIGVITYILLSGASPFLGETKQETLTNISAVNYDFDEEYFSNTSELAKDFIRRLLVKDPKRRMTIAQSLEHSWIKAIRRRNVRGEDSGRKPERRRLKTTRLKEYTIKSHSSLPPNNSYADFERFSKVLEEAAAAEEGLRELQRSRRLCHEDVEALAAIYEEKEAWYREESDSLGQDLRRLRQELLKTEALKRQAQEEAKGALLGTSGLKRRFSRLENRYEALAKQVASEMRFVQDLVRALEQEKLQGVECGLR
# UniProt Q00537, whole entry: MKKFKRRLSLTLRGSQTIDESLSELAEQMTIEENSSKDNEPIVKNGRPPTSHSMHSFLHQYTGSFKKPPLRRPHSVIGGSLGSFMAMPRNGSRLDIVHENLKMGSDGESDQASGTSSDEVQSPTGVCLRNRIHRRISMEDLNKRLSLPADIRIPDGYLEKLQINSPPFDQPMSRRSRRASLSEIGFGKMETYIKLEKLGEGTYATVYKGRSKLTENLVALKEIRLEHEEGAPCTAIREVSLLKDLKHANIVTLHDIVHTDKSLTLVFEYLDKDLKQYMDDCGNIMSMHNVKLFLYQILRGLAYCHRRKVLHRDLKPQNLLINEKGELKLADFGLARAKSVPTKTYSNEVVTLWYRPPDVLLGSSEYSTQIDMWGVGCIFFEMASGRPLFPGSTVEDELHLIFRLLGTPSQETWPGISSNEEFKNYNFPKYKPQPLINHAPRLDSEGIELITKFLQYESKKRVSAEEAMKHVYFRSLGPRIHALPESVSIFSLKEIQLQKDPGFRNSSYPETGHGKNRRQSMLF
# UniProt P51812, whole entry: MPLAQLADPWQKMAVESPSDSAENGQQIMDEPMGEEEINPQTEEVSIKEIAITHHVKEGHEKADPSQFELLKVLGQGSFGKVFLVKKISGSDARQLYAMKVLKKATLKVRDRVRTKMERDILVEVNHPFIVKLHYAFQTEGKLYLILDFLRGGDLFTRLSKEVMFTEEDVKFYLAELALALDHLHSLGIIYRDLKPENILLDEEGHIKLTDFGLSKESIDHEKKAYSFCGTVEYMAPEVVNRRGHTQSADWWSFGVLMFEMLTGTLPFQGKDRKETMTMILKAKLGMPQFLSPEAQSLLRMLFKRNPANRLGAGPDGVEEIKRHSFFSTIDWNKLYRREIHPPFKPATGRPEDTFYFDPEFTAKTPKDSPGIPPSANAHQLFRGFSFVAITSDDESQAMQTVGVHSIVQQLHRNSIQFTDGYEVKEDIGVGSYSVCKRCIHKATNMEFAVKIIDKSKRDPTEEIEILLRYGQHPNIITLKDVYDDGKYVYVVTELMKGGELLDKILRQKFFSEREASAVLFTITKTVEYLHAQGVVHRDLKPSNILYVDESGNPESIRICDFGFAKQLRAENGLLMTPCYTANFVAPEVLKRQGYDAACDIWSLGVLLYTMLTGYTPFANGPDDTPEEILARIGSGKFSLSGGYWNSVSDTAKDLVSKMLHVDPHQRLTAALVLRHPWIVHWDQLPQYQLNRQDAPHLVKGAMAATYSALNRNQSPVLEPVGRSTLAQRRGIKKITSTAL
# UniProt Q9Y6E0, whole entry: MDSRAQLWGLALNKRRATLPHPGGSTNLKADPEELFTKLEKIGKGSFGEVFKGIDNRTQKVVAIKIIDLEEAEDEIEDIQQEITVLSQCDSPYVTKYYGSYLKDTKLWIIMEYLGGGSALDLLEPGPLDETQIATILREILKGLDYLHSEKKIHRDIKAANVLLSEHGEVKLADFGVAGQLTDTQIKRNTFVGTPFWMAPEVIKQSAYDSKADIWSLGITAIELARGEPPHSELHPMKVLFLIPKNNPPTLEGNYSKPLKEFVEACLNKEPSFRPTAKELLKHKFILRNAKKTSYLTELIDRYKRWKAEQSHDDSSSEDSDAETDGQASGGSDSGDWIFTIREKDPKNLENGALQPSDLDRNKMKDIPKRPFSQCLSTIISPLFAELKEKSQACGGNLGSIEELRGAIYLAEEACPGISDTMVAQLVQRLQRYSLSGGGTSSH
# UniProt P51451, whole entry: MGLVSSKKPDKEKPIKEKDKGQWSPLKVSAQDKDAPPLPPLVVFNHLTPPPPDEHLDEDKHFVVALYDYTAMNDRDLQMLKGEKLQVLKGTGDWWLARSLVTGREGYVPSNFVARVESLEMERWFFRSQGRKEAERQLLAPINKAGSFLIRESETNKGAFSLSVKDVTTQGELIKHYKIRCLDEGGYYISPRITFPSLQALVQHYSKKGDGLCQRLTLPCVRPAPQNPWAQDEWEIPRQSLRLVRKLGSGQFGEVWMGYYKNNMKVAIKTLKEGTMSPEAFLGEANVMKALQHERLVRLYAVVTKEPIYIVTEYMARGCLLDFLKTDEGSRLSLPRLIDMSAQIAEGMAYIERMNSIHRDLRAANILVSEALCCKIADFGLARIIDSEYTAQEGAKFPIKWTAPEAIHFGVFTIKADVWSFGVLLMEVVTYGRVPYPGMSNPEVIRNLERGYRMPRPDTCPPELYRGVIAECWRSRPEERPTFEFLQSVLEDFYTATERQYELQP
# UniProt Q16644, whole entry: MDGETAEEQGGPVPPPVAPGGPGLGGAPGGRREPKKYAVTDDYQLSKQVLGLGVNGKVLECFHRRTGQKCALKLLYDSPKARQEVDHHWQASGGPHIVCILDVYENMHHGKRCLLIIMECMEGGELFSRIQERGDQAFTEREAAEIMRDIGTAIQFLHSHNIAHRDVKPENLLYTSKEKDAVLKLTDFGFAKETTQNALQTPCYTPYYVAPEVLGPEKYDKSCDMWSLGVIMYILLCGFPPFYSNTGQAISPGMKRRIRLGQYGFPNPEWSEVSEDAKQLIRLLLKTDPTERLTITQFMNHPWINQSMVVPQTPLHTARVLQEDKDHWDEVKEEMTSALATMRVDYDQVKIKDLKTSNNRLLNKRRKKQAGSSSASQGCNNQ
# UniProt P09769, whole entry: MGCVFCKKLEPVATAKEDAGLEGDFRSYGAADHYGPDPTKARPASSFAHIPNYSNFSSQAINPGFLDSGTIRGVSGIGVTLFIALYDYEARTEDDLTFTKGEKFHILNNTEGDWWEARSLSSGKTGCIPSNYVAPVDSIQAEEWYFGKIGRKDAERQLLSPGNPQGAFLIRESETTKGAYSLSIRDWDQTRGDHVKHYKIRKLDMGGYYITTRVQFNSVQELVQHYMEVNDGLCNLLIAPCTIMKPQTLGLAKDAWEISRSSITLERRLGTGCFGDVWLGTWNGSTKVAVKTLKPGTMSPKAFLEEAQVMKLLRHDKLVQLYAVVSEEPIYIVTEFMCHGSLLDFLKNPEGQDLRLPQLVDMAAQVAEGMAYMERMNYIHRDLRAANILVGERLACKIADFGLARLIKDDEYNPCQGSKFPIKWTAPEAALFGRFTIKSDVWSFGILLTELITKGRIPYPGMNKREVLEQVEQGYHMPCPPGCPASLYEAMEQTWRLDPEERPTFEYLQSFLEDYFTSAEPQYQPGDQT
# pIC50: −log10 of the molar value.
# Key:
# Test in all cases: Kinase profiling, Z-Lyte
# MAP4K4 (HGK) = MAP4K4 (HGK) (Homo sapiens, UniProt O95819); conditions: 1 μM, KmATP
# TYK2 = TYK2 (Homo sapiens, UniProt P29597); conditions: 1 μM, KmATP
# PAK2 (PAK65) = PAK2 (PAK65) (Homo sapiens, UniProt Q13177); conditions: 1 μM, KmATP
# CSF1R (FMS) = CSF1R (FMS) (Homo sapiens, UniProt P07333); conditions: 1 μM, KmATP
# CAMK2D = CAMK2D (Homo sapiens, UniProt Q13557); conditions: 1 μM, KmATP
# CDK5/p25 = CDK5/p25 (Homo sapiens, UniProt Q00535); conditions: 1 μM, KmATP
# STK3 (MST2) = STK3 (MST2) (Homo sapiens, UniProt Q13188); conditions: 1 μM, KmATP
# NTRK3 (TRKC) = NTRK3 (TRKC) (Homo sapiens, UniProt Q16288); conditions: 1 μM, KmATP
# NEK2 = NEK2 (Homo sapiens, UniProt P51955); conditions: 1 μM, KmATP
# JAK3 = JAK3 (Homo sapiens, UniProt P52333); conditions: 1 μM, KmATP
# ABL2 (Arg) = ABL2 (Arg) (Homo sapiens, UniProt P42684)
# PRKCZ (PKC zeta) = PRKCZ (PKC zeta) (Homo sapiens, UniProt Q05513); conditions: 1 μM, KmATP
# DAPK3 (ZIPK) = DAPK3 (ZIPK) (Homo sapiens, UniProt O43293); conditions: 1 μM, KmATP
# DCAMKL1 (DCLK1) = DCAMKL1 (DCLK1) (Homo sapiens, UniProt O15075); conditions: 1 μM, KmATP
# PLK2 = PLK2 (Homo sapiens, UniProt Q9NYY3); conditions: 1 μM, KmATP
# KSR2 = KSR2 (Homo sapiens, UniProt Q6VAB6); conditions: 1 μM, KmATP
# GRK7 = GRK7 (Homo sapiens, UniProt Q8WTQ7); conditions: 1 μM, KmATP
# MAPKAPK2 = MAPKAPK2 (Homo sapiens, UniProt P49137); conditions: 1 μM, KmATP
# AURKA (Aurora A) = AURKA (Aurora A) (Homo sapiens, UniProt O14965); conditions: 1 μM, KmATP
# CDK17/cyclin Y = CDK17/cyclin Y (Homo sapiens, UniProt Q00537); conditions: 1 μM, KmATP
# CDC42 BPA (MRCKA) = CDC42 BPA (MRCKA) (Homo sapiens, UniProt Q5VT25); conditions: 1 μM, KmATP
# RPS6KA3 (RSK2) = RPS6KA3 (RSK2) (Homo sapiens, UniProt P51812); conditions: 1 μM, KmATP
# SRPK1 = SRPK1 (Homo sapiens, UniProt Q96SB4); conditions: 1 μM, KmATP
# BMX = BMX (Homo sapiens, UniProt P51813); conditions: 1 μM, KmATP
# IGF1R = IGF1R (Homo sapiens, UniProt P08069); conditions: 1 μM, KmATP
# AURKC (Aurora C) = AURKC (Aurora C) (Homo sapiens, UniProt Q9UQB9); conditions: 1 μM, KmATP
# MARK4 = MARK4 (Homo sapiens, UniProt Q96L34); conditions: 1 μM, KmATP
# AXL = AXL (Homo sapiens, UniProt P30530); conditions: 1 μM, KmATP
# PRKCG (PKC gamma) = PRKCG (PKC gamma) (Homo sapiens, UniProt P05129); conditions: 1 μM, KmATP
# ITK = ITK (Homo sapiens, UniProt Q08881); conditions: 1 μM, KmATP
# STK4 (MST1) = STK4 (MST1) (Homo sapiens, UniProt Q13043); conditions: 1 μM, KmATP
# STK24 (MST3) = STK24 (MST3) (Homo sapiens, UniProt Q9Y6E0); conditions: 1 μM, KmATP
# PLK3 = PLK3 (Homo sapiens, UniProt Q9H4B4); conditions: 1 μM, KmATP
# BLK = BLK (Homo sapiens, UniProt P51451); conditions: 1 μM, KmATP
# MAPKAPK3 = MAPKAPK3 (Homo sapiens, UniProt Q16644); conditions: 1 μM, KmATP
# DCAMKL2 (DCK2) = DCAMKL2 (DCK2) (Homo sapiens, UniProt Q8N568); conditions: 1 μM, KmATP
# MAP4K2 (GCK) = MAP4K2 (GCK) (Homo sapiens, UniProt Q12851); conditions: 1 μM, KmATP
# PRKG2 (PKG2) = PRKG2 (PKG2) (Homo sapiens, UniProt Q13237); conditions: 1 μM, KmATP
# FGR = FGR (Homo sapiens, UniProt P09769)
# NTRK1 (TRKA) = NTRK1 (TRKA) (Homo sapiens, UniProt P04629); conditions: 1 μM, KmATP
smiles,measurement,setting,value
"Cc1nc(C(F)(F)F)c2c(C(N)=O)c(N)n(-c3c(C)ccc(O)c3C)c2n1 (single isomer, unassigned)",MEAN INHIBITION,MAP4K4 (HGK),15.192%
same,MEAN INHIBITION,TYK2,0.594%
same,MEAN INHIBITION,PAK2 (PAK65),5.449%
same,MEAN INHIBITION,CSF1R (FMS),25.219%
same,MEAN INHIBITION,CAMK2D,17.732%
same,MEAN INHIBITION,CDK5/p25,3.607%
same,MEAN INHIBITION,STK3 (MST2),1.674%
same,MEAN INHIBITION,NTRK3 (TRKC),6.225%
same,MEAN INHIBITION,NEK2,15.105%
same,MEAN INHIBITION,JAK3,2.710%
same,MEAN INHIBITION,"ABL2 (Arg); 1 μM, KmATP",74.616%
same,pIC50,"ABL2 (Arg); 10-point CR, ATP 25.000 μM",6.68
same,MEAN INHIBITION,PRKCZ (PKC zeta),13.234%
same,MEAN INHIBITION,DAPK3 (ZIPK),2.416%
same,MEAN INHIBITION,DCAMKL1 (DCLK1),0.527%
same,MEAN INHIBITION,PLK2,0.391%
same,MEAN INHIBITION,KSR2,3.346%
same,MEAN INHIBITION,GRK7,2.998%
same,MEAN INHIBITION,MAPKAPK2,1.297%
same,MEAN INHIBITION,AURKA (Aurora A),3.813%
same,MEAN INHIBITION,CDK17/cyclin Y,13.479%
same,MEAN INHIBITION,CDC42 BPA (MRCKA),−3.181%
same,MEAN INHIBITION,RPS6KA3 (RSK2),7.084%
same,MEAN INHIBITION,SRPK1,4.608%
same,MEAN INHIBITION,BMX,19.529%
same,MEAN INHIBITION,IGF1R,1.081%
same,MEAN INHIBITION,AURKC (Aurora C),−0.353%
same,MEAN INHIBITION,MARK4,2.379%
same,MEAN INHIBITION,AXL,4.909%
same,MEAN INHIBITION,PRKCG (PKC gamma),−5.908%
same,MEAN INHIBITION,ITK,15.820%
same,MEAN INHIBITION,STK4 (MST1),4.636%
same,MEAN INHIBITION,STK24 (MST3),6.812%
same,MEAN INHIBITION,PLK3,24.992%
same,MEAN INHIBITION,BLK,34.144%
same,MEAN INHIBITION,MAPKAPK3,−0.628%
same,MEAN INHIBITION,DCAMKL2 (DCK2),4.498%
same,MEAN INHIBITION,MAP4K2 (GCK),−5.172%
same,MEAN INHIBITION,PRKG2 (PKG2),2.847%
same,MEAN INHIBITION,"FGR; 1 μM, KmATP",73.456%
same,pIC50,"FGR; 10-point CR, ATP 10.000 μM",6.70
same,MEAN INHIBITION,NTRK1 (TRKA),12.557%
